The chains behind the UniProt entries cited, without tags or fusion partners.
UniProt P06276, whole entry: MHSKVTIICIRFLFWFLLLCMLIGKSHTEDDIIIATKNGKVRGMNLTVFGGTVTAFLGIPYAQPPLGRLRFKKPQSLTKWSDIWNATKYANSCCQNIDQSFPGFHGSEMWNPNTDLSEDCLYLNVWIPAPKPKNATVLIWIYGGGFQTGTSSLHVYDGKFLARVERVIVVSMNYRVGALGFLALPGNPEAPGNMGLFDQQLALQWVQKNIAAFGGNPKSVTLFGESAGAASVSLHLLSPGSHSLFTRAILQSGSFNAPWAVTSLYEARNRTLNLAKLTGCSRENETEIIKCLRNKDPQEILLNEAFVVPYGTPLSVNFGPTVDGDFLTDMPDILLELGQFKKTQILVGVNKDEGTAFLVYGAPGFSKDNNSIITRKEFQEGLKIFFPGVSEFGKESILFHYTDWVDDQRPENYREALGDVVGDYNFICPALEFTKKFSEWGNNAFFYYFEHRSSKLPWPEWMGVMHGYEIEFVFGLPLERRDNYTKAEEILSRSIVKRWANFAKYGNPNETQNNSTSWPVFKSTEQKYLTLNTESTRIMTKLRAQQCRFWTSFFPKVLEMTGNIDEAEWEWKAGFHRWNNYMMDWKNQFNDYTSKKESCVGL

In ChEMBL document CHEMBL6121005 (Eur J Med Chem, 2025):

Target: Cholinesterase (Homo sapiens, UniProt P06276)
Assay: Inhibition of human serum BuChE using butyrylthiocholine iodide as substrate incubated for 10 mins followed by substrate addition by DTNB reagent based Ellman's method

For `CCN(C)C(=O)Oc1cccc([C@H](C)N(C)C)c1` [RIVASTIGMINE], which IC50 is on record?
The IC50 was 173 nM.
